CycPeptMPDB entries from one study

Collected by the curators of CycPeptMPDB (Li et al. 2023) from Townsend et al. 2020, doi:10.26434/chemrxiv.13335941.v1.

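The data file gives no further conditions (lipid, pH, time, direction or concentration), and values from different papers need not be comparable. The list need not hold all peptides of the study. Entries at the database's floor value (log10 P of -10) are not listed.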

PAMPA measures passive passage through an artificial lipid membrane.
Permeability is given as log10 of P in cm/s; higher (less negative) is more permeable.

For CC(C)C[C@@H]1C(=O)N2CCC[C@H]2C(=O)N(Cc2ccccc2)CC(=O)N[C@@H](Cc2ccccc2)C(=O)N[C@@H](Cc2ccccc2)CC(=O)N(C)[C@@H](CC(C)C)C(=O)N1C the data give PAMPA -5.52 (log10 cm/s).
For O=C1CN(Cc2ccccc2)C(=O)[C@H]2CCCN2C(=O)CN(Cc2ccccc2)C(=O)CN(Cc2ccccc2)C(=O)C[C@H](Cc2ccccc2)NC(=O)[C@H](Cc2ccccc2)N1 the data give PAMPA -5.86 (log10 cm/s).
For CC(C)C[C@@H]1NC(=O)[C@@H](CC(C)C)N(C)C(=O)C[C@H](Cc2ccccc2)NC(=O)[C@H]2CCCN2C(=O)[C@H](Cc2ccccc2)NC(=O)CN(Cc2ccccc2)C(=O)[C@@H]2CCCN2C1=O the data give PAMPA -5.25 (log10 cm/s).
For CC(C)C[C@H]1NC(=O)[C@@H]2CCCN2C(=O)C[C@H](Cc2ccccc2)NC(=O)CN(Cc2ccccc2)C(=O)[C@@H](C)NC(=O)[C@@H]2CCCN2C(=O)[C@H](Cc2ccccc2)NC1=O the data give PAMPA -6.45 (log10 cm/s).
For CCCN1CC(=O)N(Cc2ccccc2)CC(=O)N[C@@H](Cc2ccccc2)CC(=O)N2CCC[C@H]2C(=O)N(C)[C@H](CC(C)C)C(=O)N[C@@H](Cc2ccccc2)C(=O)N2CCC[C@H]2C1=O the data give PAMPA -5.97 (log10 cm/s).
For CC(C)C[C@@H]1NC(=O)[C@H]2CCCN2C(=O)CN(Cc2ccccc2)C(=O)CN(Cc2ccccc2)C(=O)[C@@H](C)N(C)C(=O)[C@@H]2CCCN2C(=O)[C@H](Cc2ccccc2)NC1=O the data give PAMPA -7.46 (log10 cm/s).
For CC(C)C[C@@H]1NC(=O)[C@H]2CCCN2C(=O)CN(Cc2ccccc2)C(=O)CN(Cc2ccccc2)C(=O)[C@H](C)NC(=O)[C@H]2CCCN2C(=O)[C@H](Cc2ccccc2)NC1=O the data give PAMPA -6.76 (log10 cm/s).
For CC(C)C[C@@H]1NC(=O)[C@@H]2CCCN2C(=O)CN(Cc2ccccc2)C(=O)CN(Cc2ccccc2)C(=O)C[C@H](Cc2ccccc2)NC(=O)[C@H]2CCCN2C(=O)[C@H](Cc2ccccc2)NC1=O the data give PAMPA -6.31 (log10 cm/s).
For CC(C)C[C@H]1C(=O)N(C)[C@@H](CC(C)C)C(=O)N2CCC[C@@H]2C(=O)N(Cc2ccccc2)CC(=O)N[C@@H](Cc2ccccc2)C(=O)N2CCC[C@H]2C(=O)N[C@@H](Cc2ccccc2)CC(=O)N1C the data give PAMPA -5.75 (log10 cm/s).
For CC(C)C[C@@H]1NC(=O)[C@@H]2CCCN2C(=O)[C@H](CC(C)C)NC(=O)CN(Cc2ccccc2)C(=O)[C@@H](C)N(C)C(=O)[C@H]2CCCN2C(=O)[C@H](Cc2ccccc2)NC1=O the data give PAMPA -5.98 (log10 cm/s).
For CC(C)C[C@H]1C(=O)N[C@@H](Cc2ccccc2)CC(=O)N2CCC[C@H]2C(=O)N(Cc2ccccc2)CC(=O)N[C@@H](Cc2ccccc2)C(=O)N2CCC[C@@H]2C(=O)N[C@@H](Cc2ccccc2)CC(=O)N1C the data give PAMPA -5.76 (log10 cm/s).
For C[C@H]1NC(=O)[C@H]2CCCN2C(=O)[C@H](Cc2ccccc2)NC(=O)CN(Cc2ccccc2)C(=O)[C@@H]2CCCN2C(=O)CN(Cc2ccccc2)C(=O)CN(Cc2ccccc2)C1=O the data give PAMPA -6.19 (log10 cm/s).
For CCCN1CC(=O)N(C)[C@@H](CC(C)C)C(=O)N[C@@H](CC(C)C)C(=O)N2CCC[C@H]2C(=O)N(Cc2ccccc2)CC(=O)N[C@@H](Cc2ccccc2)C1=O the data give PAMPA -4.95 (log10 cm/s).
For CC(C)C[C@@H]1NC(=O)[C@@H]2CCCN2C(=O)[C@@H](CC(C)C)N(C)C(=O)CN(Cc2ccccc2)C(=O)C[C@H](Cc2ccccc2)NC(=O)[C@H]2CCCN2C(=O)[C@H](Cc2ccccc2)NC1=O the data give PAMPA -6.30 (log10 cm/s).
For CC(C)C[C@@H]1NC(=O)[C@@H](C)NC(=O)[C@H](Cc2ccccc2)NC(=O)CN(Cc2ccccc2)C(=O)[C@@H]2CCCN2C(=O)C[C@H](Cc2ccccc2)NC1=O the data give PAMPA -5.96 (log10 cm/s).
For CCCN1CC(=O)N(C)[C@@H](CC(C)C)C(=O)N(Cc2ccccc2)CC(=O)N2CCC[C@H]2C(=O)N(Cc2ccccc2)CC(=O)N[C@@H](Cc2ccccc2)C1=O the data give PAMPA -5.58 (log10 cm/s).
For CC(C)C[C@H]1C(=O)N(Cc2ccccc2)CC(=O)N2CCC[C@H]2C(=O)N(Cc2ccccc2)CC(=O)N[C@@H](Cc2ccccc2)C(=O)N2CCC[C@@H]2C(=O)N[C@@H](C)C(=O)N1C the data give PAMPA -6.05 (log10 cm/s).
For CC(C)C[C@H]1C(=O)N2CCC[C@@H]2C(=O)N(Cc2ccccc2)CC(=O)N[C@@H](Cc2ccccc2)C(=O)N2CCC[C@H]2C(=O)N(C)[C@H](C)C(=O)N(Cc2ccccc2)CC(=O)N1C the data give PAMPA -5.83 (log10 cm/s).
For CC(C)C[C@@H]1NC(=O)[C@H]2CCCN2C(=O)CN(Cc2ccccc2)C(=O)CN(Cc2ccccc2)C(=O)C[C@H](Cc2ccccc2)NC(=O)[C@@H]2CCCN2C(=O)[C@H](Cc2ccccc2)NC1=O the data give PAMPA -6.03 (log10 cm/s).

The 3 highest values of PAMPA among the entries above:

{"smiles": "CCCN1CC(=O)N(C)[C@@H](CC(C)C)C(=O)N[C@@H](CC(C)C)C(=O)N2CCC[C@H]2C(=O)N(Cc2ccccc2)CC(=O)N[C@@H](Cc2ccccc2)C1=O", "PAMPA (log10 cm/s)": "-4.95"}
{"smiles": "CC(C)C[C@@H]1NC(=O)[C@@H](CC(C)C)N(C)C(=O)C[C@H](Cc2ccccc2)NC(=O)[C@H]2CCCN2C(=O)[C@H](Cc2ccccc2)NC(=O)CN(Cc2ccccc2)C(=O)[C@@H]2CCCN2C1=O", "PAMPA (log10 cm/s)": "-5.25"}
{"smiles": "CC(C)C[C@@H]1C(=O)N2CCC[C@H]2C(=O)N(Cc2ccccc2)CC(=O)N[C@@H](Cc2ccccc2)C(=O)N[C@@H](Cc2ccccc2)CC(=O)N(C)[C@@H](CC(C)C)C(=O)N1C", "PAMPA (log10 cm/s)": "-5.52"}